# Test: Solubility in pure water at 25° C. with PXRD of solid residues
# Type: physicochemical
# Settings: one hour
# Description: The benzenesulfonate (besylate), ethanedisulfonic (edisylate), 1,5-naphthalenedisulfonic (napadisylate), and p-tolunesulfonic (tosylate) salts of Compound I were also prepared. Using a similar strategy as described above, these salts were prepared by evaporation from a solution of free base and acid in a solvent (e.g., methanol-dichloromethane 1:1, ethyl acetate-dichloromethane 1:2, isopropanol, and the like). If necessary, an amorphous salt produced in this way was crystallized by stirring the amorphous material in an appropriate solvent (e.g., ethyl acetate, acetonitrile, and the like).
smiles,measurement,value
Cn1cc(-c2cn(-c3ccc(OC(F)(F)F)cc3)c(=O)c3ncn(C)c23)cn1.O=S(=O)(O)O [mono-sulfate amorphous],S 1 hr,1.26 mg/mL

# — patent US20260167638A1, “PHARMACEUTICAL COMPOUND, SALTS THEREOF, FORMULATIONS THEREOF, AND METHODS OF MAKING AND USING SAME” (Genentech, Inc., priority 2018, published 2026)
